SMILES strings stand for the structures. This is a selection; strong and weak results do not stand in their true shares. Results filed as inconclusive are left out. Activity calls are given as the source filed them. Calls follow the shape of the dose curve; as a rule, active = well fitted inhibition curve with a large enough effect; inconclusive = small, poorly fitted or top-dose-only effect, or another doubt; inactive = no such curve, though single readings can be large or run the other way.

Sequences of proteins named here, by UniProt entry; tags and fusion partners are left off. A change or cut given only in a name is not applied to a line headed by its entry.
UniProt Q9Y253: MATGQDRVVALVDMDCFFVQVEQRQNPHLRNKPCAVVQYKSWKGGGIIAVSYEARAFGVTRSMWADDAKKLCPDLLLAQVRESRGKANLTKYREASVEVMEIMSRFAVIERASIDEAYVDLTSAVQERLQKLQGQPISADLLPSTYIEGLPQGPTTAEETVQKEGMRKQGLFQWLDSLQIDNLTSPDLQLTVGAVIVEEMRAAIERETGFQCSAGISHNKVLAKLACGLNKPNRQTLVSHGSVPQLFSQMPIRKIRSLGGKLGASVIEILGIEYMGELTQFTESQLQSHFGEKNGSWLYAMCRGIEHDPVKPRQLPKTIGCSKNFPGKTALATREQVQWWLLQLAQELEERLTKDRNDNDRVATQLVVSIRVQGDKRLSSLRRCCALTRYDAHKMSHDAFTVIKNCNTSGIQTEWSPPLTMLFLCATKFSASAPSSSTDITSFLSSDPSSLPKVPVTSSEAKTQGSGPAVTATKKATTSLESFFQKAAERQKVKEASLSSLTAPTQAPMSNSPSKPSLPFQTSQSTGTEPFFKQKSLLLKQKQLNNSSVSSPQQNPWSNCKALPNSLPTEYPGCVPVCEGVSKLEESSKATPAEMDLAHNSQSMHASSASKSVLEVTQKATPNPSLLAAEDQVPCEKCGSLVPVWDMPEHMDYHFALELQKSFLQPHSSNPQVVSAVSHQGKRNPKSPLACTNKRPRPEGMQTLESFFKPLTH

Potency data for five molecules are collected here from PubChem BioAssay AID720502 (National Center for Advancing Translational Sciences (NCATS), 2013).
Potency is read from the fitted curve at half-maximal effect.

The assay has as its target DNA polymerase eta (Homo sapiens) (UniProt Q9Y253). Nature of the assay: qHTS for Inhibitors of Polymerase Eta: Confirmatory Assay for Cherry-picked Compounds. The settings on record: Pol eta primer extension, TAMRA/BHQ fluorescence, 10 min. An excerpt:
The Y-family of DNA polymerases, such as the Polymerase Eta (Pol eta), are specifically involved in DNA repair. Pol eta copies undamaged DNA with a lower fidelity than other DNA-directed polymerases. However, it accurately replicates UV-damaged DNA. When thymine dimers are present, this polymerase inserts the complementary nucleotides in the newly synthesized DNA, thereby bypassing the lesion and suppressing the mutagenic effect of UV-induced DNA damage. […] Thus, while Pol eta's (and most likely iota's) normal function is to protect humans against the deleterious consequences of DNA damage, under certain conditions they can have deleterious effects on human health. As a consequence, small molecule inhibitors of Pol eta (identified from a high throughput replication assay) have potential therapeutic applications. A 1536-well format, fluorescence based, high-throughput screen (AID 588591) is developed in collaboration with the National Institute of Child Health & Human Development (NICHD) to screen for inhibitors of the Pol eta enzyme. This screen is used to validate the activity of the selected compounds from the primary assay against the human Pol eta. Inhibition is the desired outcome for this assay. NIH Chemical Genomics Center [NCGC] NIH Molecular Libraries Probe Centers Network [MLPCN] MLPCN Grant: MH090825 Assay Submitter (PI): Roger Woodgate, NICHD
Three microliters of reagents (buffer in column 3 and 4 as negative control while 10 nM Pol eta in columns 1, 2, and 5-48) were dispensed into a 1536-well black solid-bottom plate. Compounds (23 nL) were transferred via Kalypsys pin tool equipped with 1536-pin array. The plates were then incubated for 15 min at room temperature, and 1 uL of substrate was added to start the reaction for a final concentration of 50 nM. The substrate was made by the annealing of unlabeled oligodeoxynucleotide primer (59-[…]-39) and TAMRA-labeled reporter strand (59-[…]-6-TAMRA-39) to oligodeoxynucleotide template labeled with BHQ-2 (59-BHQ-2-[…]-39) described in detail at the Yamanaka et.al. (PLOS, 2012) reference paper. The assay plates were initially read after 0 min and again after 10 min of kinetic reaction using the PerkinElmer Viewlux reader equipped with 525 nm excitation and 598 nm emission filters.
In general terms: qHTS replaces the single test concentration by a dilution series.
In the case of `O=c1c2cc([N+](=O)[O-])ccc2[nH]c2c([N+](=O)[O-])cc([N+](=O)[O-])cc12`, the Potency is active: 75.7 µM.
As for `Nc1cccc2ccc([As](=O)(O)O)cc12`, the Potency was active: 47.8 µM.
In the case of `CCc1nc2c(n1)c1c(non1O)c1c2no[n+]1[O-]` it was active: 84.9 µM.
With `Nc1cccc2c([As](=O)(O)O)cccc12`, the Potency was active: 37.9 µM.
`N#Cc1c(-c2ccc(-c3no[n+]([O-])c3C#N)cc2)no[n+]1[O-]`: the Potency is active: 84.9 µM.
